# Laboratory results reported in PubChem BioAssay AID504444 (National Center for Advancing Translational Sciences (NCATS), 2011).
# This is a selection; strong and weak results do not stand in their true shares. Inconclusive results are not listed. Activity calls are given as the source filed them. Calls come from the whole dose curve; as a rule, active = well fitted inhibition curve with a large enough effect; inconclusive = small, poorly fitted or top-dose-only effect, or effect the other way; inactive = flat fitted curve, though single readings scatter.
# Assay: Nrf2 qHTS screen for inhibitors; note: nearly all actives have a fitted effect of over 60% in size
# Conditions: A549 ARE-Fluc reporter, luciferase luminescence, 18-24 h; series mostly up to 46 µM; activity change, negative = inhibition: at the top concentration
# % is set by controls: 0 for no effect and ±100 for the full control effect; potency is the fitted concentration of half-maximal effect.
SMILES,"activity change, negative = inhibition",Potency
Cc1ccc(C)c(NP(C)(=O)Oc2ccccc2)c1 (centres undefined),inactive: 2.89%,
Cc1cc(C)cc(OP(C)(=O)Nc2ccccn2)c1 (centres undefined),inactive: 7.52%,
CP(=O)(Nc1cccc(Br)c1)Oc1ccccc1 (centres undefined),inactive: -0.993%,
CCOC(=O)c1ccc(NP(C)(=O)Oc2cc(C)cc(C)c2)cc1 (centres undefined),inactive: -8.88%,
Cc1cc(C)cc(OP(C)(=O)Nc2ccc(C)cc2C)c1 (centres undefined),inactive: 10.3%,
CP(=O)(Nc1ccccc1F)Oc1ccccc1 (centres undefined),inactive: 2.71%,
CC(C)c1ccc(OP(C)(=O)Nc2ccc(SC(F)(F)F)cc2)cc1 (centres undefined),,active: 18.4 µM
Cc1c([N+](=O)[O-])cc([N+](=O)[O-])c(Br)c1[N+](=O)[O-],inactive: 14.7%,
CP(=O)(Nc1ccccc1)Oc1ccc(F)cc1 (centres undefined),inactive: -19.4%,
CCCCCOc1ccc(NP(C)(=O)Oc2ccc(Cl)cc2Cl)cc1 (centres undefined),inactive: 1.46%,
CCOC(=O)c1ccc(NP(C)(=O)Oc2ccc(F)cc2)cc1 (centres undefined),inactive: -6.58%,
COc1ccc(OP(C)(=O)Nc2ccc(SC(F)(F)F)cc2)cc1 (centres undefined),inactive: -15.3%,
O=[N+]([O-])c1ccc(OP2(=O)COCCO2)cc1 (centres undefined),inactive: -2.4%,
Cc1cc(-c2cccc3ccccc23)c(C)cn1.O=[N+]([O-])c1cc([N+](=O)[O-])c(O)c([N+](=O)[O-])c1,inactive: -8.85%,
Cc1c(C(c2ccc3c(c2)OCO3)c2c(C)n(C)n(-c3ccccc3)c2=O)c(=O)n(-c2ccccc2)n1C.O=[N+]([O-])c1cc([N+](=O)[O-])c(O)c([N+](=O)[O-])c1,inactive: 3.04%,
CN(C)CCOC(=O)C(O)(c1ccccc1)C1CCCCC1 (centres undefined),inactive: 5.38%,
COc1ccc(NP(C)(=O)Oc2ccccc2OC)cc1 (centres undefined),inactive: -5%,
CP(=O)(Nc1ccc2c(c1)OCCO2)Oc1ccccc1 (centres undefined),inactive: 8.25%,
CP(=O)(Nc1ccc(SC(F)(F)F)cc1)Oc1ccc(F)cc1 (centres undefined),inactive: -18.8%,
CCOP(C)(=S)SCC(=O)NC(C)(CC)C(=O)O (centres undefined),inactive: 8.64%,
COc1ccccc1OP(C)(=O)Nc1ccccc1Br (centres undefined),inactive: 5.14%,
CC(C)(C)c1ccc(OP(C)(=O)O)cc1,inactive: -18.1%,

SMILES,"activity change, negative = inhibition",Potency
CP(=O)(Nc1ccc(Cl)cc1)Oc1ccc(F)cc1 (centres undefined),inactive: -16.4%,
CN(C)C(=O)c1c([N+](=O)[O-])cc([N+](=O)[O-])cc1[N+](=O)[O-],inactive: 6.29%,
CCN(CC)CC(O)COC(=O)C(O)(c1ccccc1)C1CCCCC1 (centres undefined),inactive: -11.5%,
COc1ccc(OP(C)(=O)Nc2ccc(Br)cc2)cc1 (centres undefined),inactive: -5.38%,
COc1ccccc1OP(C)(=O)Nc1c(C)n(C)n(-c2ccccc2)c1=O (centres undefined),inactive: 22.5%,
O=C(OCCCN1CCCC1)C(O)(c1ccccc1)C1CCCCC1 (centres undefined),inactive: -0.974%,
CP(=O)(Oc1ccccc1)N1CCOC1=O (centres undefined),inactive: 9.49%,
CCc1ccc(OP(C)(=O)Nc2cccnc2)cc1 (centres undefined),inactive: -1.01%,
Nc1ccc2c(ccc3cccnc32)n1.O=[N+]([O-])c1cc([N+](=O)[O-])c(O)c([N+](=O)[O-])c1,inactive: 17.7%,
CCOC(=O)c1ccc(NP(C)(=O)Oc2ccc(Cl)cc2)cc1 (centres undefined),inactive: -31.8%,
CP(=O)(Nc1ccc(Cl)cc1Cl)Oc1ccccc1 (centres undefined),inactive: -6.44%,
CP(=O)(OCCOc1ccccc1)OCCOc1ccccc1,inactive: 0.146%,
Cc1cc(C)cc(OP(C)(=O)Nc2cccc(C(F)(F)F)c2)c1 (centres undefined),,active: 23.1 µM
COc1ccccc1OP(C)(=O)Nc1ccc(C)c(C)c1 (centres undefined),inactive: -16.1%,
COc1ccc(OP(C)(=O)Nc2ccccc2Br)cc1 (centres undefined),inactive: -12.1%,
Cc1c(NP(C)(=O)Oc2ccc(C(C)C)cc2)c(=O)n(-c2ccccc2)n1C (centres undefined),inactive: 1.21%,
CP(=O)(Nc1ccccn1)Oc1ccccc1 (centres undefined),inactive: -3.52%,
COc1ccccc1OP(C)(=O)Nc1ccc(C)cc1C (centres undefined),inactive: 8.51%,
CCc1ccc(OP(C)(=O)O)cc1,inactive: -2.64%,
COc1ccccc1OP(C)(=O)Nc1ccc(Br)cc1 (centres undefined),inactive: -14.4%,
COc1ccc(OP(C)(=O)Nc2ccccn2)cc1 (centres undefined),inactive: 11.1%,
CN(C)CCOC(=O)C(O)(c1ccccc1)C1CCCC1 (centres undefined),inactive: 11.1%,
